In this test the test system is healthy male Wistar rats. Particulars: high adrenaline dose (HA) 1 μg/kg/min. The method, then: In the first part of the study (Table 1, Table 3, series 1), thirteen (13) healthy male Wistar rats were anesthetized by intraperitoneal (ip.) injection of thiopental (Tiobarbital 0.5 g, Braun Medical SA) after 12 hours of fasting.

Structures are written as SMILES. Several values for one entry are separate records, joined by “and”; a condition that tells them apart may be missing. Equal entries are not always repeated. Where two headings read alike, the source gives them in different places.

As for `CNCC(O)c1ccc(O)c(O)c1` (stereo not drawn) [adrenaline], the “Blood glucose levels, individual animals in duplicate” value by setting is: (120 min) 16.6 mM/l; (150 min) 17.1 mM/l; (180 min) 18.4 mM/l and 17.0 mM/l and 16.8 mM/l.

Values taken from US20200246352A1, “Vanadyl and vanadate for use in reducing stress-induced metabolic derangement” (CFM Pharma Holding B.V., priority 2017, published 2020).
